Measured affinities in a library of Ab-14 heavy chain variants

Target peptide (SARS-CoV-2 spike, HR2 region): PDVDLGDISGINAS

Ab-14 is the parent antibody, in scFv form: VH, then the linker GGGGSGGGGSGGGGS, then VL. The light chain is unchanged in all variants.
VH: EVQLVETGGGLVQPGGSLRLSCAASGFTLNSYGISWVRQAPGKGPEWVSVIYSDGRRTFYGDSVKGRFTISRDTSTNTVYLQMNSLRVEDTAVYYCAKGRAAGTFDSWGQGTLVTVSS
VL: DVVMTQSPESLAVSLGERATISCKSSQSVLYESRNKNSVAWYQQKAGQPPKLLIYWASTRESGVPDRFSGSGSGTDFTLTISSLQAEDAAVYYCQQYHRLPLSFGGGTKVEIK

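Phage display of a naive human antibody library on the peptide gave the parent. Library AAYL49 holds single substitutions and randomly drawn double and triple substitutions in the CDRs. The scFvs were displayed on barcoded MATa yeast, the peptide on MATalpha yeast. The frequency of each diploid, read from paired DNA barcodes, reflects how well the two displayed proteins bind. The ratio of observed to expected reads was calibrated, replicate by replicate, on BCL2-family standards whose Kd was known from biolayer interferometry. There are three technical replicates.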

The parent's heavy chain CDRs are GFTLNSYGIS, VIYSDGRRTFYGDSVK, GRAAGTFDS; each variant's own CDRs replace them letter for letter.
Scale: log10 of Kd in nM, estimated from mating counts; low values are strong binders.
Averages over replicates are reported, and they cover detected replicates only.
"nd" means that the variant was in the library but no mating with the target was seen in that replicate; the authors take this as a sign of poor binding, and no number exists.
Background: pairings of library AAYL49 with three empty control strains gave a value in 15% of cases (median 4.06, 5th percentile 2.83). Values in that range, when seen in few replicates, are hard to tell from nonspecific mating. Also given: how often the same scFv was detected with the empty control strains, with their mean in brackets.
In this assay the parent's reference entry averaged 0.65; its copy inside this library read 4.11 (one replicate of three).

CDR-H1,CDR-H2,CDR-H3,log10 Kd (nM) by replicate,mean log10 Kd (nM),signal with controls
GFTLNSYGPS,VIKSDGRRTFYGDSVK,GRLAGTFDS,nd / nd / nd,nd,0/9
GFTLNSYGIE,YIYSDGRRTFYGDSVK,GRAAGTFFS,5.60 / 4.56 / 6.47,5.54,8/9 (4.51)
GFWLNSYGIS,VAYSDGRRTYYGDSVK,GRAAGTFDS,nd / nd / nd,nd,1/9 (1.57)
GHTLNSGGIS,VDYSDGRRTFYGDSVK,GRAAGTFDS,4.89 / 4.18 / nd,4.53,4/9 (4.23)
GFTLNSYGIS,VIASDGLRPFYGDSVK,GRAAGTFDS,nd / nd / nd,nd,0/9
GFTLNSYGIT,VIYSDGRETFYGDSVK,GRAAGSFDS,3.73 / 4.16 / nd,3.94,1/9 (3.53)
GFTLNSYGIS,VIYSDGRRTFEGDKVK,GRAAGHFDS,5.81 / 3.58 / 4.29,4.56,6/9 (4.34)
GPTLESYGIS,VIYSDGRRTFYGDSVK,GRAAVTFDS,1.97 / 1.72 / 2.34,2.01,0/9
GFTLNSYGIS,VIYSDGRRTFYGDSYP,GRAAGTFDC,nd / nd / nd,nd,0/9
GVTLNSCGIS,VIYSDGYRTFYGDSVK,GRAAGTFDS,nd / nd / 3.33,3.33,3/9 (3.99)
GFTLNSYGIS,VIYSDGRRTFFGDVVK,GRYAGTFDS,nd / nd / nd,nd,0/9
GFTLQSYGQS,VIYSDGRRTFYGDSVK,GRAAGWFDS,nd / nd / nd,nd,1/9 (2.34)
GFTLNSYGIS,VIYSDGRRNFYGDSVK,GRAYGTKDS,nd / 3.17 / nd,3.17,1/9 (3.83)
GFTLNSYGIS,VIYSDGRRTFYGRSVK,GRAAGTFHR,2.46 / 2.30 / 2.06,2.27,1/9 (5.35)
GFTLNSYGII,SIYSDGRRTFYGDSVK,GSAAGTFDS,nd / nd / nd,nd,3/9 (4.66)
GFTLNSYGIS,VIYSSGRRTFYGDSVK,GRQYGTFDS,nd / nd / nd,nd,0/9
GFTLNSYGIS,VIYSDGRRRFPGDSVK,GRAEGTFDS,nd / nd / nd,nd,1/9 (4.87)
GFTLNSYGIS,QIYSDGRRTFYGDSVP,GRAAGTFMS,nd / nd / nd,nd,2/9 (4.17)
GETLNSYGQS,VIYSDGRMTFYGDSVK,GRAAGTFDS,nd / nd / nd,nd,0/9
GFTLNSYGKS,QIYSDQRRTFYGDSVK,GRAAGTFDS,4.54 / nd / nd,4.54,0/9
GFTLNSYGIS,VIYNDGRYTFYGDSVK,GRAAGTNDS,4.74 / 3.79 / 5.43,4.65,4/9 (3.76)
GFTLNSYGIS,VIYSVGRRTFYNDSVK,GRAAGTDDS,nd / nd / nd,nd,1/9 (4.01)
GNTLNSYGIS,RIYSDGRRTFYGDSVK,GRAAGRFDS,3.27 / nd / nd,3.27,0/9
GFTLNYYGIS,VIYNDGRRTFYGDSVK,GRAAGTVDS,nd / nd / nd,nd,0/9
GFTLNSYGIS,VIVSDGRYTFYGDSVK,QRAAGTFDS,nd / nd / nd,nd,0/9
GCTCNSYMIS,VIYSDGRRTFYGDSVK,GRAAGTFDS,nd / 3.77 / nd,3.77,1/9 (2.66)
GFELNSYGIS,VIYSDGRRCFYGDSVK,GRAAGQFDS,0.53 / 0.86 / 0.92,0.77,0/9
GATLNSYGIS,VACSDGRRTFYGDSVK,GRAAGTFDS,nd / nd / nd,nd,4/9 (4.15)
GFTLNSNGIS,VIVSDGRRTKYGDSVK,GRAAGTFDS,nd / nd / nd,nd,2/9 (2.06)
GFTLNSYGVD,VIYSDGRQTFYGDSVK,GRAAGTFDS,nd / nd / nd,nd,1/9 (4.83)
GFTLNSYGIS,SIYSDGRRTFYGDSPK,GRAAGTTDS,nd / 3.79 / nd,3.79,2/9 (3.40)
GFTLNSYGHS,VIYSDGGRTFNGDSVK,GRAAGTFDS,4.61 / nd / 5.59,5.10,5/9 (4.64)
GFTLNSYGIS,VIYSDGLRTFYGDSVK,GRANVTFDS,0.78 / 0.69 / 0.54,0.67,1/9 (2.37)
GFTLNSYGIS,VIYSDGRRNFYGDSVK,GRPAGTFDS,nd / nd / nd,nd,0/9

Top 4 of the variants detected in all replicates, tightest first:

CDR-H1,CDR-H2,CDR-H3,log10 Kd (nM) by replicate,mean log10 Kd (nM),signal with controls
GFTLNSYGIS,VIYSDGLRTFYGDSVK,GRANVTFDS,0.78 / 0.69 / 0.54,0.67,1/9 (2.37)
GFELNSYGIS,VIYSDGRRCFYGDSVK,GRAAGQFDS,0.53 / 0.86 / 0.92,0.77,0/9
GPTLESYGIS,VIYSDGRRTFYGDSVK,GRAAVTFDS,1.97 / 1.72 / 2.34,2.01,0/9
GFTLNSYGIS,VIYSDGRRTFYGRSVK,GRAAGTFHR,2.46 / 2.30 / 2.06,2.27,1/9 (5.35)

Values reported by Engelhart et al. 2022, doi:10.1038/s41597-022-01779-4 (FLAb copy).